Measured values from PubChem BioAssay AID652048 (National Center for Advancing Translational Sciences (NCATS), 2013).
Several values for one entry are separate records, joined by “and”; a condition that tells them apart may be missing. Equal entries are not always repeated. Only a part is listed here, and it is no random draw. Activity calls are given as the source filed them. No stated cut-off is given here; in the data, active means max activation above about 30%; inactive means the rest.

Chains of the proteins cited; added tags and fusions are not shown.
UniProt P35462, whole entry, looked up: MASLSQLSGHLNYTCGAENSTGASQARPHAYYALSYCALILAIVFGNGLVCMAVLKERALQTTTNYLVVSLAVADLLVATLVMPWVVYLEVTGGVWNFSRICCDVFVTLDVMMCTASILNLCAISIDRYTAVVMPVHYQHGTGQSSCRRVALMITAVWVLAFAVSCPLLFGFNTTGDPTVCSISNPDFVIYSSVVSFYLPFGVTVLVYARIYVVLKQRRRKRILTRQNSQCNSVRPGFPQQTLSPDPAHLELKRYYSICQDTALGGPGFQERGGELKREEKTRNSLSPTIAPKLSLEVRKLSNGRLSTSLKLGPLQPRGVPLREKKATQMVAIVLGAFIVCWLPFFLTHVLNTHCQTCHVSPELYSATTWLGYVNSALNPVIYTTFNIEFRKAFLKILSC

Biological target: D(3) dopamine receptor (Homo sapiens) (UniProt P35462)
Experiment: qHTS of D3 Dopamine Receptor Agonist: qHTS; further: 0% is about no effect
Conditions: D3R DiscoveRx beta-arrestin cells, luminescence, 90 min; active compounds read high
Excerpt: D3 DARs represent a very important target for the treatment of several neuropsychiatric disorders. Indeed, one of the most promising therapeutic applications for the D3 DAR is in the area of addiction and related disorders. […] These findings have been observed with a number of addictive substances including cocaine, amphetamine, nicotine, and alcohol. […] Antagonism of the D3 DAR may also be therapeutic in the treatment of schizophrenia or psychosis. […] Since the D3 DAR is expressed in areas of the CNS associated with the control of mood and emotion, it has been hypothesized that selective antagonism of the D3 DAR may be effective in treating psychosis without inducing the motor side effects typically seen with D2 DAR antagonists.
This part of the project aims to discover novel agonist.
NIH Chemical Genomics Center [NCGC]
NIH Molecular Libraries Probe Centers Network [MLPCN]
Assay Submitter (PI): David Sibley, NINDS
Freshly passaged cells are plated in 1536 well white, solid bottom plates at a density of 1500 cells/well in 3microl of complete media. After an overnight incubation at 37 degrees C in 5% CO2, cells are loaded with 23nl of test compound from the compound library (as well as dopamine controls) using a 1536 pintool and incubated at 37 degrees C for 90 minutes. Two microliters of DiscoveRx reagent is then added to all cells, and they are incubated for an additional 30 - 60 minutes at room temperature. Following incubation, luminescence is measured on a ViewLux CCD-based luminometer reader using a 20 sec exposure time.

Row | SMILES | max activation
1 | O=[N+]([O-])c1ccc(Nc2ccc(Oc3ccc([N+](=O)[O-])cc3[N+](=O)[O-])cc2)c([N+](=O)[O-])c1 | inactive: 2.68%
2 | O=P(Nc1ccccn1)(c1cccc2ccccc12)c1cccc2ccccc12 | inactive: -1.15%
3 | Cc1cc(SC(NC=O)C(Cl)(Cl)Cl)ncn1 (centres undefined) | inactive: 0.0745%
4 | CCOC(=O)Nc1cccc([As](=O)(O)O)c1 | inactive: -5.24%
5 | CCCCOc1ccc(C(=O)NCC2(N3CCCCC3)CCCCC2)cc1OC | inactive: -15.2%
6 | Cc1cc(SC(NC(=O)c2ccccc2)C(Cl)(Cl)Cl)nc(C(C)C)n1 (centres undefined) | inactive: 2.41%
7 | COP(=O)(OC)N1CC1c1ccccc1 (centres undefined) | inactive: 2.3%
8 | CC1CCNP(=O)(N(CCCl)CCCl)O1 (centres undefined) | inactive: 1.33%
9 | CCOC(=O)Nc1ccc([As](=O)(O)O)c(O)c1 | inactive: -9.47%
10 | O=C(O)C(O)c1ccc(N(CCCl)CCCl)cc1 (centres undefined) | inactive: 1.3%
11 | CCC(C)N(CC(C)C)C(=S)SC(NC(C)=O)C(Cl)(Cl)Cl (centres undefined) | inactive: 2.89%
12 | CCOC(=O)c1ccc(NC(=O)C(C)(CCl)SC)cc1 (centres undefined) | inactive: -3.17%
13 | O=C(OC1CN2CCC1CC2)c1cccc([N+](=O)[O-])c1 (centres undefined) | inactive: -1.93%
14 | CSc1ccc(Nc2c([N+](=O)[O-])cc([N+](=O)[O-])cc2[N+](=O)[O-])cc1 | inactive: -10.1%
15 | O=C(COc1ccccc1)OC1CN2CCC1CC2 (centres undefined) | inactive: 0.998%
16 | O=C(Nc1ccncc1[N+](=O)[O-])c1ccc([N+](=O)[O-])cc1[N+](=O)[O-] | inactive: 0.627%
17 | O=C(O)C(=O)c1ccc(N(CCCl)CCCl)cc1 | inactive: -11.1%
18 | COP1(=S)c2c(C)nn(CCC#N)c2N=C(c2ccc(F)cc2)N1C (centres undefined) | inactive: -7.51%
19 | COC(=O)C1(C)COP(=O)(N2CCCC2)OC1 (centres undefined) | inactive: -3.76%
20 | COc1ccc(N/C(=N/P(=O)(N2CCOCC2)N2CCOCC2)N2CCOCC2)cc1 | inactive: 4.59%
21 | O=[N+]([O-])c1cc(Oc2ccc([N+](=O)[O-])cc2C(F)(F)F)cc([N+](=O)[O-])c1 | inactive: 7.46%
22 | COc1ccc2nc(NP(=O)(c3ccccc3)c3ccccc3)sc2c1 | inactive: 0.813%
23 | COc1cc(I)ccc1[As](=O)(O)O | inactive: 3.31%
24 | O=P1(N(CCCl)CCCl)OCCCN1CCCl (centres undefined) | inactive: -0.648%
25 | O=P1(N(CCCl)CCCl)Nc2ccccc2N1 | inactive: 2.95%

Row | SMILES | max activation
26 | O=C(OC1CN2CCC1CC2)C12CC3CC(CC(C3)C1)C2 (centres undefined) | inactive: 3.11%
27 | Cc1cc(=O)[nH]c(N[N+](=O)[O-])n1 | inactive: -4.53%
28 | Cc1c2c(nc3ccccc13)SC(C(Cl)Cl)C2 (centres undefined) | inactive: -2.52%
29 | CC(C)NC(=O)NP(=O)(Oc1ccccc1)Oc1ccccc1 | inactive: 1.77%
30 | O=C(OC1CN2CCC1CC2)c1cccc2[nH]cnc12 (centres undefined) | inactive: -3.92%
31 | CCN(CC)C(=S)SC(NC=O)C(Cl)(Cl)Cl (centres undefined) | inactive: -2.08%
32 | O=[N+]([O-])c1cc([N+](=O)[O-])c(-c2ccn[nH]2)s1 | inactive: -3.8%
33 | COC(=O)C1(C)COP(=O)(N2CCCCCC2)OC1 (centres undefined) | inactive: 7.09%
34 | CC(C)c1ccc(OP(=O)(Nc2ccccn2)Oc2ccccc2F)cc1 (centres undefined) | inactive: 4.99%
35 | ClCCSc1nnc(-c2cccnc2)o1 | inactive: 1.64%
36 | Cc1ccc2nc3c(c(C)c2c1)CC(C(Cl)Cl)S3 (centres undefined) | inactive: 6.11%
37 | [N-]=[N+]=NC1CCCCC1NC(=O)c1cc([N+](=O)[O-])cc([N+](=O)[O-])c1 (centres undefined) | inactive: -9.1%
38 | Cc1ccc(OP(=O)(Nc2ccc([N+](=O)[O-])cn2)Oc2ccc(C)cc2)cc1 | inactive: 1.77%
39 | O=[As](O)(c1ccc(O)cc1)c1ccccc1O | inactive: -11.2%
40 | C[As](=O)(O)c1cccc(C(=O)O)c1 | inactive: -0.361%
41 | O=[N+]([O-])c1ccc(-c2cc([N+](=O)[O-])c(O)c([N+](=O)[O-])c2)cc1 | inactive: -12.8%
42 | COc1cc(C(=O)NCC2(N3CCOCC3)CCCCC2)ccc1OCC(C)C | inactive: -15.4%
43 | O=[N+]([O-])c1ccc2c(c1)nnn2O | inactive: -13.6%
44 | CN(C)C(=O)c1cc([N+](=O)[O-])cc2c1-c1c(cc([N+](=O)[O-])cc1[N+](=O)[O-])C2=O | inactive: -15.6%
45 | CN(C(=O)Cc1ccc(Cl)c(Cl)c1)[C@H]1CC[C@@]2(CCCO2)C[C@@H]1N1CCCC1 | inactive: -2.99% and inactive: -16.3%
46 | N#CCCN(C(=O)COC(=O)C(O)(c1ccccc1)c1ccccc1)c1ccc(F)cc1 | inactive: -20.9%
47 | CCOP1(=S)c2c(C)nn(CCC#N)c2N=C(c2ccc(F)cc2)N1C (centres undefined) | inactive: 2.8%
48 | CN(C(=O)Cc1ccccc1)[C@@H]1CC[C@]2(CCCO2)C[C@H]1N1CCCC1 | inactive: 0.834%
49 | NC(=O)Nc1ccc([As](=O)(O)O)cc1 | inactive: -10.7% and inactive: -5.5%
50 | Nc1ccccc1[As](=O)(O)c1ccccc1 | inactive: 12.9%

Row | SMILES | max activation
51 | O=C(O)COc1ccc([As](=O)(O)O)cc1[N+](=O)[O-] | inactive: -19.1%
52 | CS(=O)(=O)c1cc([N+](=O)[O-])c2no[n+]([O-])c2c1 | inactive: 0.941%
53 | CCOP1(=S)c2c(C)nn(CCC#N)c2N=C(c2ccccc2F)N1C (centres undefined) | inactive: -4.95%
54 | O=P(Nc1nccs1)(Oc1ccccc1)Oc1ccccc1 | inactive: 3.44%
55 | O=P(Nc1nccs1)(c1ccccc1)c1nc2ccccc2s1 (centres undefined) | inactive: -10.2%
56 | COc1cc(C2NCCC3(OCCO3)C2(C)C)cc(OC)c1OC (centres undefined) | inactive: -20.9%
57 | CCOP(=O)(Nc1cccc2ccccc12)OCC | inactive: -8.94%
58 | CCCOP(=S)(Nc1nc(N)cc(=O)[nH]1)OCCC | inactive: -1.64%
59 | Nc1cccc2c([As](=O)(O)O)cccc12 | inactive: 0.665%
60 | Cc1ccc(NCCc2c([N+](=O)[O-])cc([N+](=O)[O-])cc2[N+](=O)[O-])cc1 | inactive: -4.6%
61 | Cc1cccc(OCC(=O)OC2CN3CCC2CC3)c1 (centres undefined) | inactive: 1.93%
62 | O=[As](O)(c1cccc(O)c1)c1cccc(O)c1 | inactive: 3.79%
63 | O=[As](O)(O)c1cccnc1 | inactive: 7.8%
64 | COc1cc(C(=O)NCC2(N3CCOCC3)CCCCC2)cc(Cl)c1OC(C)C | inactive: -1.11%
65 | CS(=O)(=O)c1ccc(Cl)c(NC(=O)COC(=O)C(O)(c2ccccc2)c2ccccc2)c1 | inactive: 2.11%
66 | O=C(OC1CN2CCC1CC2)c1ccc(Cl)cc1 (centres undefined) | inactive: -2.95%
67 | CC1(CBr)Cn2c(nc3ccccc3c2=O)S1 (centres undefined) | inactive: 0.761%
68 | CC(C)/C=N\N=C(\N)N[N+](=O)[O-] | inactive: -9.33%
69 | CN(C(=O)Cc1ccc(Cl)c(Cl)c1)[C@@H]1CCCC[C@H]1N1CCCC1 | inactive: -54.2%
70 | COc1ccccc1CNC(=O)COC(=O)C(O)(c1ccccc1)c1ccccc1 | inactive: 2.81%
71 | O=P1(N(CCCl)CCCl)NCCC(C(F)(F)F)O1 (centres undefined) | inactive: 7.18%
72 | Clc1n[nH]nc1-c1nn[nH][15n]1 | inactive: -6.66%
73 | CC(C)(C)C(=O)NC(Sc1ncccn1)C(Cl)(Cl)Cl (centres undefined) | inactive: 4.29%
74 | CCOP(=O)(Nc1ccc(C)cn1)OCC | inactive: -3.25%
75 | CN(CCCl)Cc1cc(Cl)c(NC2=NCCN2)c(Cl)c1 | inactive: -5.42%

Row | SMILES | max activation
76 | O=P1(Nc2ccccn2)COc2ccccc2OC1 | inactive: 0.126%
77 | CCC1=CC2Cc3nc4ccc(Cl)cc4c(N)c3C(C1)C2 (centres undefined) | inactive: -5.11%
78 | CCOP(=O)(NC(=NC(C)c1ccccc1)NC(C)c1ccccc1)OCC (centres undefined) | inactive: 4.19%
79 | O=[As](O)(c1cccs1)c1cccs1 | inactive: -0.341%
80 | Cc1ccc(OCC(=O)OC2CN3CCC2CC3)cc1 (centres undefined) | inactive: 1.66%
81 | O=P1(Nc2ccc(Br)cn2)COc2ccccc2OC1 | inactive: 0.359%
82 | NS(=O)(=O)c1cccc(NC(=O)COC(=O)C(O)(c2ccccc2)c2ccccc2)c1 | inactive: 2.34%
83 | Nc1cccc([As](=O)(O)c2ccccc2)c1 | inactive: 6.79%
84 | O=P1(Nc2ncccn2)COc2ccccc2OC1 | inactive: 0.977%
85 | Cc1ccc(S(=O)(=O)N(CCCN)CCCc2c(C)nc(N)[nH]c2=O)cc1 | inactive: -18.1%
86 | O=C(/C=C/c1ccccc1)OC1CN2CCC1CC2 (centres undefined) | inactive: -16.7%
87 | CCCC1OP(=O)(Nc2ccccc2)OCC1CC (centres undefined) | inactive: -5.76%
88 | CN(C)C1(CNC(=O)c2ccc(S(C)(=O)=O)cc2)CCCCC1 | inactive: 5.08%
89 | Cc1nn(-c2ccccc2)c2c1P(=O)(N1CCOCC1)N(C)C(c1ccccc1)=N2 (centres undefined) | inactive: -1.04%
90 | CC1CCC(C(C)C)C(OP(=O)(Nc2ccccn2)c2ccccc2)C1 (centres undefined) | inactive: 3.13%
91 | Cc1ccc(C(=O)OC2CN3CCC2CC3)cc1 (centres undefined) | inactive: 2.28%
92 | C(Cc1nn[nH]n1)Cc1nn[nH]n1 | inactive: 0.199%
93 | Nc1ccc([As](=O)(O)c2ccc([N+](=O)[O-])cc2)cc1 | inactive: -22.3%
94 | O=C(OC1CN2CCC1CC2)c1cccc(Cl)c1 (centres undefined) | inactive: 17.5%
95 | O=[N+]([O-])c1ccc(O)c(/C=N/Nc2ccc([N+](=O)[O-])cc2[N+](=O)[O-])c1 | inactive: 17.1%
96 | O=[N+]([O-])c1ncn(CCn2cnc([N+](=O)[O-])n2)n1 | inactive: -5.05%
97 | CC(=O)NC(SC(=S)N(C)C)C(Cl)(Cl)Cl (centres undefined) | inactive: -8.53%
98 | O=[As](O)(c1ccccc1)c1ccc(O)cc1 | inactive: -7.61%
99 | O=P(Nc1nc2ccccc2s1)(c1ccccc1)c1ccccc1 | inactive: -9.83%
